Results: US12528822B2, “Cycloalkane-1,3-diamine derivative” (Daiichi Sankyo Company, Limited, priority 2018, dated 2026)
Counter-ions that a name gives are not always drawn. Like-named read-outs stand apart in the source and are kept apart here.

Legend:
[1] = system: MV-4-11 cell subcutaneous transplant model; settings: Exp. Ex. 3-3, oral, 31 days after transplantation
[2] = system: MV-4-11 cell subcutaneous transplant model; settings: Exp. Ex. 3-2, oral, 34 days after transplantation
[3] = system: MV-4-11 cell subcutaneous transplant model; settings: Exp. Ex. 3-4, oral, 32 days after transplantation

`COc1cc(-c2ccc(CN[C@H]3C[C@@H](O)[C@@H](N(C)c4ncnc5sc(CC(F)(F)F)cc45)C3)cc2)cnc1C#N` [Example 22, 5-[4-({[(1R,3R,4S)-3-hydroxy-4-{methyl[6-(2,2,2-trifluoroethyl)thieno[2,3-d]pyrimidin-4-yl]amino}cyclopentyl]amino}methyl)phenyl]-3-methoxypyridine-2-carbonitrile Hydrochloride] was tested, and the “Tumor growth inhibitory rate (%)” value ([1]; qdx17, 25 mg/kg/day) was 27%, the “Tumor growth inhibitory rate (%)” value ([1]; qdx17, 50 mg/kg/day) was 99% and the “Tumor growth inhibitory rate (%)” value ([1]; qdx17, 100 mg/kg/day) was 100%.

For `CN(c1ncnc2sc(CC(F)(F)F)cc12)[C@H]1C[C@@H](NCc2ccc(-c3cccc4c3cnn4S(C)(=O)=O)cc2)C[C@H]1O` [Example 23, (1R,2S,4R)-4-[({4-[1-(methanesulfonyl)-1H-indazol-4-yl]phenyl}methyl)amino]-2-{methyl[6-(2,2,2-trifluoroethyl)thieno[2,3-d]pyrimidin-4-yl]amino}cyclopentan-1-ol Hydrochloride], the “Tumor growth inhibitory rate (%)” value ([1]; qdx17, 25 mg/kg/day) was 37%, the “Tumor growth inhibitory rate (%)” value ([1]; qdx17, 50 mg/kg/day) was 97% and the “Tumor growth inhibitory rate (%)” value ([1]; qdx17, 100 mg/kg/day) was 100%.

In the case of `COc1cc(-c2ccc(CN[C@H]3C[C@@H](O)[C@@H](N(C)c4ncnc5sc(CC(F)(F)F)cc45)C3)cc2)nnc1OC` [Example 25, (1R,2S,4R)-4-({[4-(5,6-dimethoxypyridazin-3-yl)phenyl]methyl}amino)-2-{methyl[6-(2,2,2-trifluoroethyl)thieno[2,3-d]pyrimidin-4-yl]amino}cyclopentan-1-ol Hydrochloride], the “Tumor growth inhibitory rate (%)” value ([2]; qdx18, 12.5 mg/kg/day) is reported as 33.0%, the “Tumor growth inhibitory rate (%)” value ([2]; qdx18, 50 mg/kg/day) is reported as 100% and the “Tumor growth inhibitory rate (%)” value ([2]; qdx18, 100 mg/kg/day) is reported as 100%.

For `COc1nc(N(C)[C@H]2C[C@@H](NCc3ccc(-c4cc(OC)c(OC)nn4)cc3)C[C@H]2O)c2cc(CC(F)(F)F)sc2n1` [Example 27, (1R,2S,4R)-4-({[4-(5,6-dimethoxypyridazin-3-yl)phenyl]methyl}amino)-2-{[2-methoxy-6-(2,2,2-trifluoroethyl)thieno[2,3-d]pyrimidin-4-yl](methyl)amino}cyclopentan-1-ol Hydrochloride], the “Tumor growth inhibitory rate (%)” value ([2]; qdx18, 100 mg/kg/day) was 100%.

For `COc1cc(-c2ccc(CN[C@H]3C[C@@H](O)[C@@H](N(C)c4ncnc5sc(CC(F)(F)F)cc45)C3)cc2)cnc1C.Cl` [Example 60, (1R,2S,4R)-4-({[4-(5-methoxy-6-methylpyridin-3-yl)phenyl]methyl}amino)-2-{methyl[6-(2,2,2-trifluoroethyl)thieno[2,3-d]pyrimidin-4-yl]amino}cyclopentan-1-ol hydrochloride], the “Tumor growth inhibitory rate (%)” value ([3]; qdx16, 25 mg/kg/day) was 43%, the “Tumor growth inhibitory rate (%)” value ([3]; qdx16, 50 mg/kg/day) was 97% and the “Tumor growth inhibitory rate (%)” value ([3]; qdx16, 100 mg/kg/day) was 100%.

With `COc1cc(-c2ccc(CN[C@H]3C[C@@H](O)[C@@H](N(C)c4ncnc5sc(CC(F)(F)F)cc45)C3)cc2)cnc1OC.Cl` [Example 67, (1R,2S,4R)-4-({[4-(5,6-dimethoxypyridin-3-yl)phenyl]methyl}amino)-2-{methyl[6-(2,2,2-trifluoroethyl)thieno[2,3-d]pyrimidin-4-yl]amino}cyclopentan-1-ol hydrochloride] the “Tumor growth inhibitory rate (%)” value ([3]; qdx16, 25 mg/kg/day) was 9%, the “Tumor growth inhibitory rate (%)” value ([3]; qdx16, 50 mg/kg/day) was 61% and the “Tumor growth inhibitory rate (%)” value ([3]; qdx16, 100 mg/kg/day) was 100%.

With `COc1cc(-c2ccc(CN[C@H]3C[C@@H](O)[C@@H](N(C)c4ncnc5sc(CC(F)(F)F)cc45)C3)cc2)cnc1F.Cl` [Example 68, (1R,2S,4R)-4-({[4-(6-fluoro-5-methoxypyridin-3-yl)phenyl]methyl}amino)-2-{methyl[6-(2,2,2-trifluoroethyl)thieno[2,3-d]pyrimidin-4-yl]amino}cyclopentan-1-ol hydrochloride] the “Tumor growth inhibitory rate (%)” value ([1]; qdx17, 25 mg/kg/day) was 0%, the “Tumor growth inhibitory rate (%)” value ([1]; qdx17, 50 mg/kg/day) was 42% and the “Tumor growth inhibitory rate (%)” value ([1]; qdx17, 100 mg/kg/day) was 97%.
